# Yeast mating assay B: variants of the scFv Ab-14

Reference: Li et al. 2023, doi:10.1038/s41467-023-39022-2. File: FLAb, binding data.

Target peptide (SARS-CoV-2 spike, HR2 region): PDVDLGDISGINAS

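The variants were designed computationally from a first round of random CDR variants and then made and measured. Group labels follow the data file (Ctrl: baseline library sampled from a position-specific scoring matrix, with some repeated check sequences; Rand: our label for a block that the file lists under HC and that is probably the random mutants of the ten best first-round binders; En: ensemble of fine-tuned language models; GP: Gaussian process model; HC: hill climbing; Gen: genetic algorithm; Gibbs: Gibbs sampling; a sequence that several methods proposed may carry one label only). The assay is AlphaSeq: two haploid yeast populations carry antibody and antigen on their surface. Pairs that bind mate more often; barcode pairs of the diploids are counted by sequencing. A regression on co-assayed BCL2-family reference pairs converts the normalised counts of each replicate to an apparent Kd. Mating was done six times.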

The variants keep the heavy chain, the linker and the frameworks of Ab-14 (scFv order VH, three GGGGS repeats, VL).
VH: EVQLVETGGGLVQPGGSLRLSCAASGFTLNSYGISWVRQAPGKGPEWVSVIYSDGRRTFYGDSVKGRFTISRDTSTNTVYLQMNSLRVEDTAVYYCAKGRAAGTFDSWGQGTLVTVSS
VL: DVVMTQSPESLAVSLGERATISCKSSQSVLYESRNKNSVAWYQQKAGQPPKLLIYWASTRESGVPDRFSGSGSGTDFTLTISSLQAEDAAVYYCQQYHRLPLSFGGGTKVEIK

Variants are written as CDR1, CDR2 and CDR3 of the light chain (limits as in the source). Parent: KSSQSVLYESRNKNSVA, WASTRES, QQYHRLPLS. Kd is apparent (estimated from mating counts) and averaged on the log scale over replicates with a signal. Smaller is tighter. "no signal" marks a missing value. The strain was present, yet no cells mated with the target were sequenced in any replicate, which points to weak or no binding.

Kd	seen in	CDR-L1	CDR-L2	CDR-L3	group
35 nM	6/6	MISQIYNMGQFAINSVA	QASERSN	QQYDRLPLI	En_Gen
660 pM	6/6	KLEQSVMLESRNVNAVA	SASQREL	QQYHRLPLS	GP_Gibbs
170 nM	3/6	KSRQSLLYESRNKNSVA	WASTRES	QQYHHLPLF	Ctrl
240 nM	3/6	KSSQSVLYERRNNNSVA	WASTRES	QQYHRLPLS	Ctrl
26 nM	6/6	NVGQEMLGESRNKNSVA	HQSTRED	QHYHRLPLS	En_HC
900 pM	6/6	KSEQSVLYESRNKNSVA	HASTRED	QQYGRLPLS	GP_HC
1.4 nM	6/6	SFSQTVMYESTMRNNVA	QTSTRES	QQYDHLPLS	En_HC
1.7 nM	6/6	KWPQGVLYESRNKNSVA	GASVRES	QQYHRLPLS	GP_HC
1.2 µM	2/6	HLGLATMLEEYARNSVA	NNSTREK	QQYDRLPLS	En_Gen
940 pM	6/6	KLEQSELYMSRNANSVA	NASTRMS	QQYHRLPLS	GP_Gibbs
1.1 nM	6/6	KSSQSWLYESRNFWSVA	NASQRES	QQYHRLPLS	GP_HC
5.3 nM	6/6	KLSQSMLYESRNKNSVA	EASTRES	QAYHRLPLS	GP_Gen
28 nM	6/6	HMSALTLQGMRARNSVA	QMTTREN	QQYDRLPLA	En_Gen
260 nM	6/6	MISDMGLHDSRIKNSVA	NNSTREA	QQYDRLPLS	En_HC
no signal	0/6	KSSQSVLYESTEMNSVA	MASTHES	QQYHRLPLS	Ctrl
320 pM	6/6	KISQSVLYEDRNKNSVA	NASTRCS	QQYHRLPLS	GP_Gen
17 nM	6/6	GLSQDFYNERNMANQVA	DGNQLAN	QQYARLPLV	En_Gibbs
1.9 nM	12/12	KYSQSVLYESRNKNSVA	EASTRES	QQYHRLPLS	Ctrl+GP_Gen
no signal	0/6	KVSQSFLYESRNKNQVA	GASTRES	QQYHRLTLS	GP_HC
350 pM	6/6	KSSGSGLYESRNKNSVA	EASTRES	QQYHRLPLS	GP_HC
no signal	0/6	KSSQSVVYESRNCNSVA	WASTRES	QQYHRWPLS	Ctrl
110 nM	6/6	KSSQSVLYESLNFNSVA	HASTRES	QQYHRLPES	Ctrl
4.0 nM	6/6	TLMHHQDRYDNWKKSIA	EASIRAS	QQYQRLPLA	En_Gibbs
20 nM	6/6	KLVQFMNRGTHHTSNIA	DAQNRTD	QQYARLPLA	En_Gen
1.5 nM	6/6	KLQQSELYESRNKNSVA	NASERES	QQYHRLPLS	GP_Gen
680 pM	6/6	KLQQSVLYESRMKNSVA	NASTRCS	QQYHRLPLS	GP_Gen
310 nM	4/6	KIMQSLNYEQFNKNSVA	GQETRER	QSYHRLPLS	En_HC
36 nM	6/6	KLRHHNLDFYEVENNIA	GESMRAA	QQYYRLPLN	En_Gibbs
2.0 nM	6/6	KLMQMPLYESRNANSVA	NASTREE	QQYHRLPLS	GP_Gibbs
17 nM	6/6	KSSFSVLFESRNKNSVA	NASTRES	QQYHRLPLR	GP_HC
450 pM	6/6	KSSWSSLYESRNKNSVA	DASTRES	QQYHRLPLS	GP_HC
1.3 nM	6/6	KLESRQYHFGANHQNIA	DATDSMN	QQYMHLPFT	En_Gibbs
4.8 nM	6/6	KVSPEWWYESRNKASVA	HASTRES	QQYHRLPLS	GP_Gibbs
740 pM	6/6	KCQGSQLYESRNKNAVA	NASTRED	QQYHRLPLS	GP_Gibbs
48 nM	6/6	KLGMTVGYEQRNKSRVA	DNNTREE	QQYDRLPLS	En_HC
24 nM	6/6	KMSQSVSYESRNKNSVA	SASTRES	QQVHRYPLS	Ctrl
1.3 nM	6/6	KSSQSVDYTSRNKNSVA	GASTREE	QQYRRLPLS	Ctrl
1.2 µM	4/6	KMSQSVLHGWRNKNSVA	WATTRES	QQYHRLPLS	Ctrl
2.2 nM	6/6	KLQQSELYGERNSNSVA	HASLRES	QQYHRLPLS	GP_Gibbs
64 nM	1/6	KQSQSVLYESRNENSVA	DASTRES	QQGHRLPLS	Rand
54 nM	6/6	HISQSHGMTSRNKNSVA	ENSTRED	QQYDRLPLS	En_HC
6.1 nM	6/6	KSSISILYESVNKNSVA	HASTRES	QQYHRLPLS	GP_HC
490 pM	6/6	KHEEWVEYESRNKNSVA	NASTRLS	QQYHRLPLS	GP_Gibbs
1.3 nM	6/6	KLDQSQLYESRNKNSVA	NASTRCS	QQYHRLPLS	GP_Gen
no signal	0/6	KSSQSVLYESLNANSVA	WAYTRES	QQYHRLPLS	Ctrl
3.4 nM	6/6	KMSQSVLGLDRNWNSVA	YASTREM	QQYHRLPLS	GP_Gibbs
2.9 nM	6/6	KLQMQVLMSSRNKNSVA	QANTRES	QQYHRLPLS	GP_Gibbs
870 pM	6/6	KSSISYLEESRNKNSVA	EASTREL	QQYHRLPLS	GP_HC
no signal	0/6	CSSQSVLYSSRNKNSVA	WASTRES	QQYHRLPLS	Ctrl
6.5 µM	3/6	KSSQSVLMESRNKNSVA	WASTRES	QQYHRIPFS	Ctrl
1.1 µM	4/6	MISQLYNMGQFAINSVA	QAEERYN	QQYDRLPLM	En_Gen
9.6 nM	6/6	KLTIMGLHQSIDKKSIA	ERSTREN	QQYHRLPLS	En_HC
490 nM	2/6	HFSQVTMYGYWNKNSVA	QTSTREE	QQYDKLPLS	En_HC

Again, the first 5 entries without any signal:

CDR-L1	CDR-L2	CDR-L3	group	Kd	seen in
KSSQSVLYESTEMNSVA	MASTHES	QQYHRLPLS	Ctrl	no signal	0/6
KVSQSFLYESRNKNQVA	GASTRES	QQYHRLTLS	GP_HC	no signal	0/6
KSSQSVVYESRNCNSVA	WASTRES	QQYHRWPLS	Ctrl	no signal	0/6
KSSQSVLYESLNANSVA	WAYTRES	QQYHRLPLS	Ctrl	no signal	0/6
CSSQSVLYSSRNKNSVA	WASTRES	QQYHRLPLS	Ctrl	no signal	0/6

A sequence that the file lists under several names has all its replicates pooled. Background: pairings of all light chain designs with three empty control strains gave a value in 4% of cases (median 430 nM, 5th percentile 38 nM). Values in that range, when seen in few replicates, are hard to tell from nonspecific mating. In the paper, a design with two or fewer of six values counts as a poor binder. Values of this round are not directly comparable with the first-round values of the same sequences.